Test results as given in paper PMC9416875.

Molecular target: integrin αMβ2 ectodomain with ACID/BASE C-terminal coiled-coil heterodimerization domain (human) (UniProt P11215)
Assay: SPR
Settings: domain or fragment

RTX751 (Bordetella pertussis adenylate cyclase toxin, ACT, residues 751-1,706) (from UniProt P0DKX7 751-1706)
koff: 0.0044 s⁻¹
